## Experimental intrinsic clearance values from OPERA 2.9

Values as listed in the OPERA 2.9 repository of K. Mansouri.

Clint is human hepatic intrinsic clearance in µL/min per million cells; 0 means that no clearance was seen.

CN(C)C(=O)Nc1ccc(Cl)c(Cl)c1 [Diuron] is reported with intrinsic clearance 12.15 µL/min/10^6 cells. For COc1ccccc1OCCNCC(O)COc1cccc2[nH]c3ccccc3c12 (stereo unspecified) [Carvedilol] the data give intrinsic clearance 50.9 µL/min/10^6 cells. The entry for CCCCCCCCCCCCCOS(=O)(=O)[O-].[Na+] [Sodium tridecyl sulfate] lists intrinsic clearance 43.1 µL/min/10^6 cells. O=c1ccc2ccccc2o1 [Coumarin] has intrinsic clearance 0 µL/min/10^6 cells. CCC(CC)C(=O)O [ 2-Ethylbutyric acid ] is reported with intrinsic clearance 9.62 µL/min/10^6 cells. The entry for CCCCOC(=O)[C@@H](C)Oc1ccc(Oc2ccc(C(F)(F)F)cn2)cc1 [Fluazifop-p-butyl] lists intrinsic clearance 306.6 µL/min/10^6 cells. For CC1(C)C(=O)NC(=O)N1CO [1-(hydroxymethyl)-5,5-dimethylhydantoin] the data give intrinsic clearance 13.1 µL/min/10^6 cells.

The entry for O=c1[nH]c2ccc(S(=O)CCN3CCC(Cc4ccc(F)cc4)CC3)cc2o1 (stereo unspecified) [Besonprodil] lists intrinsic clearance 5.31 µL/min/10^6 cells. CNC(=NC#N)NCCSCc1nc[nH]c1C [Cimetidine] is reported with intrinsic clearance 5.452 µL/min/10^6 cells. The entry for COc1ccc(-c2ccc3c(N4CCOC[C@@H]4C)nc(N4CCOC[C@@H]4C)nc3n2)cc1C(C)O (stereo not given in full) lists intrinsic clearance 38.02 µL/min/10^6 cells. Listed for CS(=O)(=O)OCCCCOS(C)(=O)=O [Busulphan]: intrinsic clearance 1.39 µL/min/10^6 cells. CC(C)OC(=O)C(C)(C)Oc1ccc(C(=O)c2ccc(Cl)cc2)cc1 [Fenofibrate] is reported with intrinsic clearance 563 µL/min/10^6 cells. Listed for C[C@]12CC[C@@H]3c4ccc(O)cc4C[C@@H](CCCCCCCCCS(=O)CCCC(F)(F)C(F)(F)F)[C@H]3[C@@H]1CC[C@@H]2O (stereo partly specified) [Fulvestrant]: intrinsic clearance 2.4 µL/min/10^6 cells. CCOC(=O)COc1cc(-n2ncc(C(F)(F)F)c(C)c2=O)c(F)cc1Cl [Flufenpyr-ethyl] is reported with intrinsic clearance 375 µL/min/10^6 cells.

Listed for O=C1NC(=O)C(c2ccccc2)(c2ccccc2)N1 [Phenytoin]: intrinsic clearance 0.8178 µL/min/10^6 cells. For CCSC(=O)N(CC(C)C)CC(C)C [Butylate] the data give intrinsic clearance 52.51 µL/min/10^6 cells. The entry for O=C(O)c1ccccc1C(c1ccc(O)cc1)c1ccc(O)cc1 [Phenolphthalin] lists intrinsic clearance 1.85 µL/min/10^6 cells. The entry for C#C[C@]1(O)CC[C@H]2[C@@H]3CCc4cc(O)ccc4[C@H]3CC[C@@]21C [Ethinylestradiol] lists intrinsic clearance 0 µL/min/10^6 cells. Listed for C=C(C)[C@@H]1CCC2=CC(=O)C[C@@H](C)[C@]2(C)C1 [Nootkatone]: intrinsic clearance 172 µL/min/10^6 cells. The entry for CC(C)(c1cc(Br)c(O)c(Br)c1)c1cc(Br)c(O)c(Br)c1 [3,3',5,5'-tetrabromobisphenol a] lists intrinsic clearance 50.5 µL/min/10^6 cells. C=CCC(CCC)C(=O)O (stereo unspecified) [ 2-Propyl-4-pentenoic acid ] has intrinsic clearance 0.38 µL/min/10^6 cells.

The entry for Nc1nc(Cl)nc2c1ncn2[C@H]1C[C@H](O)[C@@H](CO)O1 [2-chloro-2'-deoxyadenosine] lists intrinsic clearance 0 µL/min/10^6 cells. The entry for CN(C)c1ccc(C(c2ccccc2)c2ccc(N(C)C)cc2)cc1 [Leucomalachite green] lists intrinsic clearance 0 µL/min/10^6 cells. CCO [Ethanol] has intrinsic clearance 3.958 µL/min/10^6 cells. Listed for CCOc1ccccc1C(N)=O [Ethoxybenzamide]: intrinsic clearance 1.3 µL/min/10^6 cells. For CC(O)CN(CCN(CC(C)O)CC(C)O)CC(C)O (stereo unspecified) [N,n,n',n'-tetrakis(2-hydroxypropyl)ethylenediamine] the data give intrinsic clearance 0 µL/min/10^6 cells. The entry for COc1ccc2c(c1)c(CC(=O)O)c(C)n2C(=O)c1ccc(Cl)cc1 [Indomethacin] lists intrinsic clearance 9.35 µL/min/10^6 cells. For C=C(C)C(=O)OCCC(F)(F)C(F)(F)C(F)(F)C(F)(F)C(F)(F)C(F)(F)F [3,3,4,4,5,5,6,6,7,7,8,8,8-tridecafluorooctyl methacrylate] the data give intrinsic clearance 196.9 µL/min/10^6 cells.

CCCCCCCCCCCCCC[P+](CCCC)(CCCC)CCCC.[Cl-] [Tributyltetradecylphosphonium chloride] is reported with intrinsic clearance 16.7 µL/min/10^6 cells. The entry for CC[C@H](C)C(=O)O[C@H]1C[C@@H](C)C=C2C=C[C@H](C)[C@H](CC[C@@H]3C[C@@H](O)CC(=O)O3)[C@H]21 [Lovastatin] lists intrinsic clearance 21.9 µL/min/10^6 cells. The entry for CCCCCCCCCCCCCOP(=O)(O)O [Monotridecyl phosphate] lists intrinsic clearance 18.8 µL/min/10^6 cells. Oc1cc2ccccc2c2ccccc12 [9-phenanthrol] is reported with intrinsic clearance 20.98 µL/min/10^6 cells. CC(=O)C[C@@H](c1ccc([N+](=O)[O-])cc1)c1c(O)c2ccccc2oc1=O [S-acenocoumarol] has intrinsic clearance 0 µL/min/10^6 cells. Cc1noc2cc(N3CCN(C(=O)[C@@H]4CCCC[C@H]4C(=O)NC4(C#N)CC4)[C@H](C)C3)ccc12 has intrinsic clearance 30.2 µL/min/10^6 cells. O=C(O)c1cc(/N=N/c2ccc(S(=O)(=O)Nc3ccccn3)cc2)ccc1O [Sulfasalazine] is reported with intrinsic clearance 5.16 µL/min/10^6 cells.

The entry for CCc1occc(=O)c1O [2-ethyl-3-hydroxy-4h-pyran-4-one] lists intrinsic clearance 81 µL/min/10^6 cells. O=C(OCc1ccccc1)c1ccc(O)cc1 [Benzylparaben] is reported with intrinsic clearance 633 µL/min/10^6 cells. CCc1ccc(CCOc2ccc(CC3SC(=O)NC3=O)cc2)nc1.Cl (stereo unspecified) [Pioglitazone hydrochloride] has intrinsic clearance 8.92 µL/min/10^6 cells. Listed for CCCCN1CCCCC1C(=O)Nc1c(C)cccc1C (stereo unspecified) [Bupivacaine]: intrinsic clearance 13.24 µL/min/10^6 cells. CSC(=O)c1cccc2nnsc12 [Acibenzolar-s-methyl] has intrinsic clearance 863 µL/min/10^6 cells. Listed for CC(C)(C)NCC(O)c1cc(O)cc(O)c1 (stereo unspecified) [Terbutaline]: intrinsic clearance 0 µL/min/10^6 cells. Listed for CC(=O)CCc1ccc(O)cc1 [4-(4-hydroxyphenyl)butan-2-one]: intrinsic clearance 29.1 µL/min/10^6 cells.

Nc1ccc(C(=O)O)cc1 [4-aminobenzoic acid] is reported with intrinsic clearance 0 µL/min/10^6 cells. CCCCCc1ccc(N)cc1 [4-pentylaniline] is reported with intrinsic clearance 18.2 µL/min/10^6 cells. O=[N+]([O-])c1ccc(O)cc1 [4-nitrophenol] has intrinsic clearance 25.95 µL/min/10^6 cells. Listed for CCCCC(CCC)C(=O)O (stereo unspecified) [2-n-propyl-hexanoic acid]: intrinsic clearance 0.0143 µL/min/10^6 cells.

A selection of 4 entries from above:

SMILES	name	intrinsic clearance (µL/min/10^6 cells)
O=[N+]([O-])c1ccc(O)cc1	4-nitrophenol	25.95
CCc1ccc(CCOc2ccc(CC3SC(=O)NC3=O)cc2)nc1.Cl (stereo unspecified)	Pioglitazone hydrochloride	8.92
O=C(O)c1ccccc1C(c1ccc(O)cc1)c1ccc(O)cc1	Phenolphthalin	1.85
C=C(C)C(=O)OCCC(F)(F)C(F)(F)C(F)(F)C(F)(F)C(F)(F)C(F)(F)F	3,3,4,4,5,5,6,6,7,7,8,8,8-tridecafluorooctyl methacrylate	196.9

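The numbers are reported measurements, compiled and curated for the OPERA QSAR suite. A listed value is a point estimate from one report or more. Method, purity and exact conditions of the single measurements are not given. The measured form (salt, isomer or mixture) is not always the one drawn. Some upstream entries may be estimates or bounds without being marked so.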